Target: Poly [ADP-ribose] polymerase 1 (Homo sapiens, UniProt P09874)
Experiment: Potency index, ratio of olaparib IC50 to test compound IC50 for inhibition of PARP1 (unknown origin)

By UniProt entry, the sequences of proteins in these tests, tags left out.
UniProt P09874, whole entry: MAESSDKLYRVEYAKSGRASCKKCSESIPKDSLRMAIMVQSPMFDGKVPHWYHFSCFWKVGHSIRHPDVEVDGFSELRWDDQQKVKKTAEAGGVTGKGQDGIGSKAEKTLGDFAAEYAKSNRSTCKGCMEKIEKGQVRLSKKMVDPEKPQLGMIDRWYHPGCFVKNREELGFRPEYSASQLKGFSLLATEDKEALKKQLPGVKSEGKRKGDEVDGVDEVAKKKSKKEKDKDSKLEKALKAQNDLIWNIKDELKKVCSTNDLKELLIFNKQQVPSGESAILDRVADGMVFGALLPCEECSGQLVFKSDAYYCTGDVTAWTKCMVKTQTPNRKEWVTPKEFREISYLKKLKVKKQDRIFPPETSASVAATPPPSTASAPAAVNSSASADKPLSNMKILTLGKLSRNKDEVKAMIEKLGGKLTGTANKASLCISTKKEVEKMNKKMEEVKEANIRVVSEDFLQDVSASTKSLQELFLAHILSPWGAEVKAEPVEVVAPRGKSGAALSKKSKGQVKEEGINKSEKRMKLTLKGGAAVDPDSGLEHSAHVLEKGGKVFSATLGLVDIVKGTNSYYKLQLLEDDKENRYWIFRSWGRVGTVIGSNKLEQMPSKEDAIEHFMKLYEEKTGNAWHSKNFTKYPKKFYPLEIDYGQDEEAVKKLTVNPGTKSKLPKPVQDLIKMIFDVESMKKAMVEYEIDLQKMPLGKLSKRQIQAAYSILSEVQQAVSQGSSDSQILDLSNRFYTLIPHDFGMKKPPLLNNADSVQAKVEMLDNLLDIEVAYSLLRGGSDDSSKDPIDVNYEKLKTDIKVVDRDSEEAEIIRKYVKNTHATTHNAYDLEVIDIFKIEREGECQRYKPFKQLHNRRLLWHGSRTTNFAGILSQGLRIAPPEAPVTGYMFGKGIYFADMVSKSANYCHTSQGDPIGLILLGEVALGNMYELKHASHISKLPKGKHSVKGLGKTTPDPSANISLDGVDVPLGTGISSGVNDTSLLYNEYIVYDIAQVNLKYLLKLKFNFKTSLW

NC(=O)c1cncc2[nH]c(C3CCN(C(=O)c4cc(Cc5n[nH]c(=O)c6ccccc56)ccc4F)CC3)nc12
Ratio IC50: 4

From ChEMBL document CHEMBL4819147, “Design, synthesis and biological evaluation of novel molecules as potent PARP-1 inhibitors” (Bioorg Med Chem Lett, 2021)
